Data on 54 compounds can be found in PubChem BioAssay AID2006 (Sanford-Burnham Center for Chemical Genomics, 2009).

Amino acid sequences for entries named in this document (tags omitted).
UniProt P63279, whole entry: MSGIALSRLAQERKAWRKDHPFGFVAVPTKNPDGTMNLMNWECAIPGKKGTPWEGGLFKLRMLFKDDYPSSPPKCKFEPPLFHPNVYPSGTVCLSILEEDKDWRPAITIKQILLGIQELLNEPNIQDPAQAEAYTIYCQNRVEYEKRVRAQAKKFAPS

SMILES strings stand for the structures. This is a selection; strong and weak results do not stand in their true shares. Calls of active or inactive are those of the source. Rule as the data show it: active = inhibition above about 50% (passing the limit was not always enough); inconclusive = no clear call, values can overlap the other calls.

For this assay, the target named is SUMO-conjugating enzyme UBC9 (Homo sapiens) (UniProt P63279). The assay is described as follows: blockers of SAE1/SAE2–UBC9 SUMO transfer – biochemical, HTRF, uHTS, primary screen (AID 2006). The note with it: HTRF SUMOylation assay, SAE1/SAE2 + UBC9, in vitro; at 35 µM; hits give high values.
In the case of `CC(C)(C)OC(=O)N1CCC(N(C(=O)c2ccccc2)c2ccc(Cl)cc2)CC1`, the inhibition was inactive: 4.9%. Then `N#Cc1ccc(C(=O)NCC2(N3CCCCC3)CCCCC2)cc1`, with inactive: 7%; and `CCCN1CCC(Nc2cc(OC)cc(OC)c2)CC1`, with inactive: 22.1%; and `c1ccc(CN2CCC(Nc3ccccc3)CC2)cc1`, with inactive: 12.3%.

For the compound `CN(C)C1(CNC(=O)c2cccc(C#N)c2)CCCCC1`, the inhibition is inactive: 11.3%.

As for `COc1ccc(C(=O)NCC2(N3CCOCC3)CCCCC2)cc1OC`, the inhibition was inactive: 5.3%. For `O=C(OC1CN2CCC1CC2)C1c2ccccc2C=Cc2ccccc21` (centres undefined), the inhibition is inactive: 7%. The result for `N/C(=N\O)c1c(N)no[n+]1[O-]` reads inactive: 1.4%. Then `CCOC(=O)N1CCC(Nc2ccc(C)cc2)CC1`, with inactive: -13.9%. The result for `CCCOc1ccc(C(=O)NCC2(N(C)C)CCCCC2)cc1` reads inactive: -3.4%; that for `O=C(O)C1(Nc2ccccc2)CCN(Cc2ccccc2)CC1`, inactive: 3.9%. In the case of `CC(C)(C)OC(=O)N1CCC(Nc2ccccc2)CC1`, the inhibition is inactive: 9.4%. The result for `CN1CCC(Nc2ccc(F)c(Cl)c2)CC1` reads inactive: -3.8%; that for `CCOc1ncccc1C(=O)NCC1(N2CCOCC2)CCCCC1`, inactive: 9.8%. The result for `CCCOc1ccc(C)cc1CN(CCCl)CCCl` reads inactive: 11.4%. Then `CN1CCC(Nc2ccc(Cl)cc2)CC1`, with inactive: 2.7%. Take `CCC(CO)(C(=O)OC1CN2CCC1CC2)c1ccccc1` (centres undefined): the inhibition is inactive: 9.3%. Then `COc1cc(OC)cc(C(=O)NCC2(N3CCOCC3)CCCCC2)c1`, with inactive: 11.4%.

For the compound `COc1cccc(C(=O)N(c2cc(C)cc(C)c2)C2CCN(C(=O)OC(C)(C)C)CC2)c1`, the inhibition is inactive: -4%. The result for `Fc1ccccc1NC1CCN(Cc2ccccc2)CC1` reads inactive: 15.3%. The result for `COc1cc(OC)cc(C(=O)NCC2(N3CCCCC3)CCCCC2)c1` reads inactive: 12.8%; that for `CN(C)c1ccc(C(=O)NCC2(N3CCCCC3)CCCCC2)cc1`, inactive: 6.6%; that for `CCN1CCC(Nc2cccc(F)c2)CC1`, inactive: 0.3%.

In the case of `COc1ccc(NC2CCN(CCc3ccccc3)CC2)c(OC)c1`, the inhibition was inactive: 26%.

Consider `CCOC(=O)N1CCC(Nc2ccc(F)cc2)CC1`, for which the inhibition is inactive: 3.5%. Then `O=C(NCC1(N2CCCCC2)CCCCC1)c1ccc(F)cc1`, with inactive: 2.3%. The result for `CCOc1ccc(C)cc1CN(CCCl)CCCl` reads inactive: 9.2%. The result for `Cc1ccc(OCC(C)C)c(CN(CCCl)CCCl)c1` reads inactive: -11%.

As for `COc1cc(C(=O)NCC2(N(C)C)CCCCC2)ccc1OC(F)F`, the inhibition was inactive: 8%. The result for `CCOC(=O)N1CCC(Nc2cccc(C)c2)CC1` reads inactive: 11.5%; that for `CSc1ccccc1C(=O)NCC1(N2CCCCC2)CCCCC1`, inactive: 11.7%; that for `O=C(NCC1(N2CCCCC2)CCCCC1)c1ccc(=O)[nH]c1`, inactive: 5%. The result for `COc1ccc(C(=O)NCC2(N3CCCCC3)CCCCC2)c(OC)c1OC` reads inactive: -2.4%; that for `CC(C)(C)OC(=O)N1CCC(N(C(=O)c2ccccc2)c2ccc(F)cc2)CC1`, inactive: -8.3%.

Take `COc1ccc(C(=O)NCC2(N3CCCCC3)CCCCC2)cc1`: the inhibition was inactive: 11.2%. Then `CCOC(=O)N1CCC(Nc2ccc(OC)cc2)CC1`, with inactive: 3%; and `O=C(OC1CN2CCC1CC2)C1c2ccccc2Oc2ccccc21` (centres undefined), with inactive: 16%; and `N#CC1(Nc2ccccc2)CCN(Cc2ccccc2)CC1`, with inactive: -5.4%. Then `O=C(NCC1(N2CCOCC2)CCCCC1)c1cc2ccccc2o1`, with inactive: 16.7%; and `Cc1cc(C)cc(N(C(=O)c2ccccc2)C2CCN(C(=O)OC(C)(C)C)CC2)c1`, with inactive: 3.5%. For `COc1cc(OC)c(C(=O)NCC2(N(C)C)CCCCC2)cc1OC`, the inhibition is inactive: 6.8%. Then `CN(C)c1cccc(C(=O)NCC2(N3CCCCC3)CCCCC2)c1`, with inactive: 13.9%. The result for `COc1ccc(CN(CCCl)CCCl)cc1Cl` reads inactive: -5.7%. The result for `CC(C)c1ccc(NC2CCN(C(=O)OC(C)(C)C)CC2)cc1` reads inactive: 3.5%; that for `CCCOc1ccc(C(=O)NCC2(N(C)C)CCCCC2)cc1OC`, inactive: 0.1%. Take `O=C(NCC1(N2CCCCC2)CCCCC1)c1cccc([N+](=O)[O-])c1`: the inhibition is inactive: 6.2%. The result for `N#CC1(Nc2ccccc2)CCN(CCc2ccccc2)CC1` reads inactive: 4.5%; that for `CCN1CCC(Nc2ccc(Cl)cc2)CC1`, inactive: 4.2%.

As to `O=C(NCC1(N2CCCCC2)CCCCC1)c1ccc(OC(F)F)cc1`, the inhibition was inactive: -12.9%. Then `CN1CCN(CCOC(=O)C(O)(c2ccccc2)c2ccccc2)CC1`, with inactive: 1%. The result for `COc1ccc(NC2CCN(C(=O)OC(C)(C)C)CC2)cc1` reads inactive: -16.9%. Then `COc1cc(C(=O)NCC2(N3CCCCC3)CCCCC2)ccc1OC(F)F`, with inactive: 3.1%; and `O=C(NCC1(N2CCOCC2)CCCCC1)c1cc(=O)[nH]c2ccccc12`, with inactive: -1.2%; and `O=C(NCC1(N2CCCCC2)CCCCC1)c1cccc(C(F)(F)F)c1`, with inactive: 4.2%.

The inhibition is the drop in the measured response relative to a control, in per cent.
